Laboratory results from patent publication US5827737A, “In vitro activation of cytotoxic T cells” (The Scripps Research Institute, priority 1996, dated 1998).

Columns and labels:
[1] = tested on: murine Class I heavy chains; assay: Relative thermostability in cell lysates by origin of β2 microglobulin and peptide length
[2] = tested on: murine Class I molecules expressed on Drosophila cells; assay: 37° C. thermostability of murine Class I on Drosophila cells grown in Excell 400; assay type: cell-based; details: human β2 added to cells in Excell 400 medium

human β2 microglobulin: human β2 microglobulin
increase in temperature of stability of murine heavy chains versus complex with murine β2 [1]: 6-8 degrees | time for which all three murine Class I molecules are stable at 37° C. [2]: at least three
